## Binding of CDR-mutated scFvs to a peptide of the spike HR2 region

The target is the same throughout: PDVDLGDISGINAS, from the HR2 region of SARS-CoV-2 spike.

The variants keep the light chain, the linker and the frameworks of Ab-14 (scFv order VH, the linker GGGGSGGGGSGGGGS, VL).
VH: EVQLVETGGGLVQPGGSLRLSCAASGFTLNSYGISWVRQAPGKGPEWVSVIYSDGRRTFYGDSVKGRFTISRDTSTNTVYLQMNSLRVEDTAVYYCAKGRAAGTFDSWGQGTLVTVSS
VL: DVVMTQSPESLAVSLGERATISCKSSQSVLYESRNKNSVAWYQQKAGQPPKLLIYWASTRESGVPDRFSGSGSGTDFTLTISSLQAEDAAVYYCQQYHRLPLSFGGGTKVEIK

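Designed CDR sequences, proposed from the first random library and measured here. Group labels follow the data file (Ctrl: baseline library sampled from a position-specific scoring matrix, with some repeated check sequences; GPLM: also part of the Gaussian process libraries; Gen: genetic algorithm; a sequence that several methods proposed may carry one label only). In AlphaSeq, yeast of one mating type display the scFv and yeast of the other type display the target. Mating (16 h, 30 °C) was followed by selection of diploids and sequencing of their barcodes. The ratio of observed to expected reads was calibrated, replicate by replicate, on BCL2-family standards whose Kd was known from biolayer interferometry. Mating was done six times.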

Substitutions are numbered in sequence along the VH above, starting at 1 (not Kabat).
Affinities are written as log10 Kd with Kd in nM; a lower number is a better binder.
"ND" marks a missing value. The strain was present, yet no cells mated with the target were sequenced in that replicate, which points to weak or no binding.

| # | changes | group | replicates, log10 nM | control signals |
|---|---|---|---|---|
| 1 | T28G/R56Q/T58V | Ctrl | ND / ND / ND / ND / ND / ND | 0 of 18 |
| 2 | S53A/T58V/A102Y/G103A | Ctrl | ND / ND / ND / ND / ND / ND | 0 of 18 |
| 3 | G61A/A101I | Ctrl+GPLM_Gen | 0.88 / 1.43 / 0.81 / 2.37 / 2.30 / 1.85; 0.60 / 0.84 / 0.96 / 0.57 / 0.62 / 0.89 | 1 of 36 (2.53) |
| 4 | F59A/G61H/D106W | Ctrl | 1.47 / 1.50 / 1.91 / 0.84 / 2.03 / 0.93 | 1 of 18 (1.31) |
| 5 | R100S/G103S/F105G | Ctrl | ND / ND / ND / ND / ND / ND | 0 of 18 |
| 6 | F59Q/G99H/G103K | Ctrl | ND / ND / ND / ND / ND / ND | 0 of 18 |
| 7 | S31D/F59A/R100H | Ctrl | 0.08 / -0.13 / -0.26 / 0.15 / 0.01 / 0.09 | 1 of 18 (1.71) |
| 8 | T28S/N30K/R56M/V64F | Ctrl | 1.86 / 2.02 / ND / 0.65 / 2.97 / 2.97 | 0 of 18 |
| 9 | G61Q/G99D | Ctrl | ND / ND / ND / ND / ND / ND | 0 of 18 |
| 10 | N30E/S31D/G61S | Ctrl | -0.19 / -0.09 / 0.05 / -0.41 / -0.21 / 0.19 | 0 of 18 |
| 11 | A101N/T104S/D106S/S107W | Ctrl | ND / ND / ND / ND / ND / ND | 0 of 18 |
| 12 | T28Q/G61A/R100K/S107L | Ctrl | 1.21 / 1.42 / 1.29 / 1.15 / 1.29 / 1.06 | 1 of 18 (2.65) |
| 13 | F59Y/G99T/R100N | Ctrl | ND / ND / ND / ND / ND / ND | 2 of 18 (1.46) |
| 14 | L29R/S31D | Ctrl | 4.24 / ND / ND / 4.53 / ND / 4.73 | 1 of 18 (1.59) |
| 15 | N30D/G61T/S63E/D106S | Ctrl | 2.51 / 2.82 / 1.19 / 2.16 / 1.96 / 2.54 | 1 of 18 (1.84) |
| 16 | G61N/D106F | Ctrl | ND / ND / ND / ND / ND / ND | 0 of 18 |
| 17 | G61Q | Ctrl | ND / 0.78 / 1.35 / 1.38 / 2.81 / ND | 0 of 18 |
| 18 | L29R/S31D/Y32F | Ctrl | ND / ND / ND / ND / ND / ND | 0 of 18 |
| 19 | T28N/G61T/S63A/G99C/T104Q | Ctrl | 0.29 / 1.60 / 1.64 / 0.54 / 0.77 / 1.20 | 0 of 18 |
| 20 | T28S/G61I | Ctrl+GPLM_Gen | 0.62 / 0.60 / 1.44 / -0.06 / 0.85 / 1.38; 1.50 / 1.97 / 1.36 / 1.54 / 1.49 / 1.36 | 1 of 36 (1.82) |
| 21 | T28D/S31E/G103S/T104V | Ctrl | ND / ND / 1.21 / 0.90 / ND / 2.60 | 0 of 18 |
| 22 | R57K/S63N/G99W | Ctrl | ND / ND / ND / ND / ND / ND | 0 of 18 |
| 23 | T28A | Ctrl | 2.26 / 1.57 / 2.51 / 1.92 / 2.76 / 1.98 | 2 of 18 (2.35) |
| 24 | T58V/F105S | Ctrl | ND / 1.58 / ND / ND / ND / ND | 0 of 18 |
| 25 | I34S/R56Y/G61S | Ctrl | ND / ND / 1.02 / ND / ND / ND | 0 of 18 |
| 26 | G61I/A101E/A102P | Ctrl | 1.07 / 0.53 / 0.59 / 0.57 / 2.92 / 0.80 | 0 of 18 |
| 27 | G61A/S107N | Ctrl | -0.19 / 0.08 / 0.66 / 0.29 / 0.49 / 0.33 | 0 of 18 |
| 28 | G61A/D62N/R100E/A102M | Ctrl | ND / ND / ND / ND / ND / ND | 1 of 18 (2.04) |
| 29 | N30Q/S31E/R100T/A102N | Ctrl | ND / ND / ND / ND / ND / ND | 1 of 18 (-1.07) |
| 30 | S53F/G61M | Ctrl | ND / ND / ND / ND / ND / ND | 0 of 18 |
| 31 | T28S/R100T/A101W/T104K | Ctrl | -0.08 / 0.41 / -0.24 / 0.08 / -0.15 / 1.00 | 0 of 18 |
| 32 | S31Q/Y60I/R100W/A101E/A102I/T104A | Ctrl | ND / ND / ND / ND / ND / ND | 0 of 18 |
| 33 | S31Q/F59A/G61I | Ctrl | 0.86 / 1.06 / 0.64 / 0.81 / 1.18 / 1.06 | 0 of 18 |
| 34 | G61A/K65E/G99L/R100Q/A101T/D106S | Ctrl | ND / ND / ND / ND / ND / ND | 1 of 18 (-0.93) |
| 35 | G26R/F27E/R56K/F105G/D106P | Ctrl | ND / ND / ND / ND / ND / ND | 0 of 18 |
| 36 | R56L/A101P/A102I/T104R | Ctrl | ND / ND / ND / ND / ND / ND | 0 of 18 |

Extract of 5 entries:

changes	group	replicates, log10 nM	control signals
S53F/G61M	Ctrl	ND / ND / ND / ND / ND / ND	0 of 18
L29R/S31D/Y32F	Ctrl	ND / ND / ND / ND / ND / ND	0 of 18
S31D/F59A/R100H	Ctrl	0.08 / -0.13 / -0.26 / 0.15 / 0.01 / 0.09	1 of 18 (1.71)
G61N/D106F	Ctrl	ND / ND / ND / ND / ND / ND	0 of 18
N30E/S31D/G61S	Ctrl	-0.19 / -0.09 / 0.05 / -0.41 / -0.21 / 0.19	0 of 18

In the paper, a design with two or fewer of six values counts as a poor binder.
Some sequences occur more than once in the pool; their replicates are listed entry by entry, parted by semicolons.
Nonspecific signal, from three strains lacking the peptide, appeared in 1% of pairings of all heavy chain designs, centred on 2.08 (5% of these signals below 0.84); values are not corrected for it. For each scFv, signals with the empty controls are counted beside the result, with their mean in brackets.
The range of this assay differs from that of the first round, and the authors advise against merging the two.
The parent sequence was in this pool as ten entries: three were never detected, three once, and four in most replicates, with averages from 0.34 to 2.37.

Data: MIT Lincoln Laboratory AlphaSeq set, Li et al. 2023, doi:10.1038/s41467-023-39022-2, as distributed in FLAb.